Consider one substance from US8840891 (RSR, dated 2014).

The test deals with human TSHR, wild type, expressed on CHO cells (human) (UniProt P16473). In words: cell-based or functional assay.

“native porcine TSH (from UniProt P01219 25-120; P01224 21-132) (ligand)” gave a cyclic AMP; Exp 1; TSH 3 ng/mL of 48.5 pmol/mL, a cyclic AMP; Exp 2; TSH 3 ng/mL of 34.3 pmol/mL, a cyclic AMP; Exp 2; native porcine TSH 0.3 ng/mL only of 40.2 pmol/mL and a cyclic AMP; Exp 3; TSH 3 ng/mL of 51.3 pmol/mL. Besides, the cyclic AMP; Exp 3; native porcine TSH 0.3 ng/mL only worked out at 35.7 pmol/mL, the cyclic AMP; Exp 4; TSH 0.3 ng/mL stood at 46.6 pmol/mL and the cyclic AMP; Exp 5; TSH 0.3 ng/mL worked out at 17.3 pmol/mL.
